## Ab-95 light chain CDR variants: yeast mating affinities

From the AlphaSeq antibody data of Engelhart et al. 2022 (doi:10.1038/s41597-022-01779-4), copy in the FLAb collection.

All variants were tested on one target, the spike HR2 peptide PDVDLGDISGINAS (SARS-CoV-2).

Parent: Ab-95, a human scFv built as VH, three GGGGS repeats, VL. Only the CDRs of the light chain vary.
VH: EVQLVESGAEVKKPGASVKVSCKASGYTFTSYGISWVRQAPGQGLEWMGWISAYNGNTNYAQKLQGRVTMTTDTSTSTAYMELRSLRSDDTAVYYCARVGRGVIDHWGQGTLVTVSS
VL: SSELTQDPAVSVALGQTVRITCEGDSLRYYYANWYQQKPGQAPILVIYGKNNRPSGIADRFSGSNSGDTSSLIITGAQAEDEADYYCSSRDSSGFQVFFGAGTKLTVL

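In library AAYL52, one, two or three CDR residues were substituted; doubles and triples were drawn at random. In AlphaSeq, yeast of one mating type display the scFv and yeast of the other type display the target. Binding brings cells together so that they mate, and sequencing counts the barcode pairs among the diploids. Each replicate has its own calibration line, from reference interactions of the BCL2 family. There are three technical replicates.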

Each variant is given by its three light chain CDRs, as the data file delimits them; those of the parent are EGDSLRYYYAN, GKNNRPS, SSRDSSGFQVF. The read-out is the apparent dissociation constant on a log10 scale (nM): the lower, the stronger. A pair that was not seen in that replicate is written "nd"; this usually means weak binding, but a binder can also be missed. As a blank, each scFv also met three strains without target: over library AAYL52, 28% of these pairings were detected, typically at 3.91 and seldom below 2.90.

CDR-L1	CDR-L2	CDR-L3	replicates, log10 nM
EGDSLRYYYAN	MKNNFPS	SDRDSSGFQVF	4.87 / nd / nd
EGDSLRYYYAN	GKNNRPS	SSRPSFGEQVF	3.78 / 3.01 / 3.86
EGDSLRYYYAN	GYNNRPS	SGRDSSGFQVH	2.80 / 2.99 / 3.21
EGDSLRYYYAN	GKHNRPS	SDRDSTGFQVF	nd / nd / 2.80
EGDSLIYYYAN	GKNNRPS	SSRDSPGFVVF	4.62 / 4.46 / nd
EGDSLRYYYAN	GKVNRPS	SSLDSSSFQVF	5.41 / 3.48 / nd
EGDSLRYYPAN	GKNNYPS	SSRDSSGFQVF	2.02 / 2.36 / 2.04
EVDSLDYYYAN	NKNNRPS	SSRDSSGFQVF	3.75 / 2.19 / nd
EGESLRYYYAN	NKNNRPS	SSRDSSAFQVF	3.38 / nd / 3.42
EGDSLRYYYAN	GKNNRPS	NPRDSSGFQVF	3.07 / nd / nd
NGDSLRYYYAN	GKNNRPS	SIADSSGFQVF	3.14 / 2.82 / 2.62
EGDVLRYCYAN	GKNNRPS	SIRDSSGFQVF	nd / nd / nd
EGDSLRYYYAN	GKNSRNS	SHRDSSGFQVF	nd / nd / nd
EGDSLRYYYKN	GKYNRPS	SGRDSSGFQVF	4.32 / 5.01 / nd
IGDSLRKYGAN	GKNNRPS	SSRDSSGFQVF	2.51 / 2.04 / 2.74
EGDSQRSVYAN	GKNNRPS	SSRDSSGFQVF	2.59 / 2.93 / 2.43
FEDSLRYYYAN	GVNNRPS	SSRDSSGFQVF	4.60 / 3.09 / nd
ESDSLRYYYAN	GKNNRPS	SSRDSSGFQVP	2.09 / 3.58 / 2.47
EGDSDRYYQAN	GKNNRPS	SSRDSMGFQVF	4.49 / nd / nd
EGRSLRYYYAN	GKMNRPS	SSRCSSGFQVF	3.92 / 3.54 / 3.34
EGDYLRYYYAR	GKYNRPS	SSRDSSGFQVF	nd / 3.28 / 3.74
EGDSLRCYYWN	GKNNRPS	SIRDSSGFQVF	nd / nd / 4.08
EGDSKRYYYEN	GKNNRPS	ISRDSSGFQVF	nd / nd / 4.13
EGDSLRYYYAN	GTNNRPS	SSRDSSGFMVF	4.01 / 3.06 / 2.66
EGDSLRYYYAN	DKNNRPS	SSRDSYGFSVF	2.80 / 2.53 / 2.66
EGDSMLYYTAN	GKNNRPS	SSRDSSGFQVF	2.83 / 2.86 / 2.37
EGDSLRYYYAN	GKNNRSS	SSRRSSGFQWF	2.12 / 2.01 / 2.14
EGDSLRFYYVN	GKNNRPS	SSRDSRGFQVF	nd / nd / nd
EGDSLRYYYAN	GKNNLPS	SSRDSNGKQVF	2.94 / 2.87 / 4.06
EGFSLRYYYAN	GKNQRPS	SSRDSSGFQEF	3.83 / 4.17 / nd
EGSSLRYYYPR	GKNNRPS	SSRDSSGFQVF	2.60 / 2.61 / 2.41
PLDSLWYYYAN	GKNNRPS	SSRDSSGFQVF	2.30 / 2.47 / 1.51
PGDSLRTYYAN	GKNNRPS	SSRDSSGFQVF	3.50 / 4.06 / 2.58
CGDSLRYYYAN	GKNNYGS	SSRDSSGFQVF	nd / 3.14 / 4.03
EGDSLRYYFAN	GKNNRPS	RSRMSSGFQVF	2.24 / 3.13 / 2.34
EGCSLFYYYAN	GKNNRPS	VSRDSSGFQVF	3.48 / 4.78 / nd
EGDSLRYYYAN	GFNNRPT	SSRDSSGFQPF	nd / 3.04 / 4.35
ELDSLRAYFAN	GKNNRPS	SSRDSSGFQVF	3.37 / 4.19 / nd
EGDSLRDYYAN	GKNNRPS	SSRDSLGFMVF	1.66 / 1.51 / 1.05
EGDSLRYYYAN	GKNNRPS	SSLMSSGFQCF	nd / nd / nd
EGDSLRYYYAN	GKNNRPS	SWRDSSGFQFF	3.50 / 3.44 / nd
EGDSLRYYYAN	GKKNRPS	SSRDSEGFQQF	nd / 4.15 / 4.18
EGDSSRYYYKN	GKNNRTS	SSRDSSGFQVF	3.76 / 3.76 / 3.44
EGDSLRYYYAN	GKNNRPV	SSRDSSKFQVF	3.82 / nd / nd
GGDSLRCYYAN	YKNNRPS	SSRDSSGFQVF	nd / nd / nd
EGDLLRYYYAN	GKNNRPS	SSRDSSEFCVF	2.43 / 2.55 / 2.16
EGDSLRYYYDG	GPNNRPS	SSRDSSGFQVF	4.06 / nd / nd
EGDSLRYYYIN	GKNPRPS	SSRDSSGFKVF	3.44 / 5.81 / nd
ESDSLRYCYAN	GKNNRPS	SSIDSSGFQVF	3.75 / 3.25 / 2.44

Top 8 of the variants detected in all replicates, tightest first:

CDR-L1	CDR-L2	CDR-L3	replicates, log10 nM
EGDSLRDYYAN	GKNNRPS	SSRDSLGFMVF	1.66 / 1.51 / 1.05
EGDSLRYYYAN	GKNNRSS	SSRRSSGFQWF	2.12 / 2.01 / 2.14
PLDSLWYYYAN	GKNNRPS	SSRDSSGFQVF	2.30 / 2.47 / 1.51
EGDSLRYYPAN	GKNNYPS	SSRDSSGFQVF	2.02 / 2.36 / 2.04
EGDLLRYYYAN	GKNNRPS	SSRDSSEFCVF	2.43 / 2.55 / 2.16
IGDSLRKYGAN	GKNNRPS	SSRDSSGFQVF	2.51 / 2.04 / 2.74
EGSSLRYYYPR	GKNNRPS	SSRDSSGFQVF	2.60 / 2.61 / 2.41
EGDSLRYYFAN	GKNNRPS	RSRMSSGFQVF	2.24 / 3.13 / 2.34